In patent US4396606A, “Novel polypeptide analgesics” (Addiction Research Foundation, priority 1979, dated 1983):
Where two headings read alike, the source gives them in different places.

How the values were obtained:
[1] = tested on: mouse vas deferens; assay: mouse vas deferens bioassay; assay type: cell-based
Source text: The guinea pig ileum myenteric plexus-longitudinal muscle preparation was used as described in Kosterlitz et al, supra, and Schulz & Goldstein, supra. A determination of IC50 was done by bracketing, with at least one concentration giving more than, and one giving less than 50% inhibition of the electrically stimulated twitch, and interpolating on a log concentration-percent inhibition plot. Geometric means of IC50 values from several muscle strips were obtained, with standard errors in log units. Kd values for naloxone as an antagonist were determined from the ratio of IC50 values in the presence and absence of a fixed naloxone concentration. The mouse vas deferens was used as described in Hughes at al (1975) Brit. J. Pharmacol. 53, 371. IC50 and naloxone Kd values were determined as above.
Effects of dynorphin-(1-13) in two bioassays. IC50 values were obtained from assays spanning the 50% inhibition response, plotted on log dose-percent inhibition plots. Naloxone Kd is the apparent dissociation constant of the antagonist, computed from the equation Kd =[…]/(D.R.-1), derived from the mass law for competitive antagonism, where C=concentration of naloxone (here 100 nM), and D.R.=dose ratio of agonist, the ratio of IC50 doses in the presence and absence of the antagonist. The same procedures were followed with the mouse vas deferens. […]

[2] = target: rat brain membranes; assay: radioreceptor binding assay; settings: 1 nM radioligand, 1 h at 23°
Protocol: The radioreceptor binding assay used well washed rat brain membranes that had been incubated for 30 min at 37° with 100 mM NaCl to remove bound endogenous ligands. Blume (1978) Proc. Natl. Acad. Sci. 75, 1713. Several radioligands (1 nM final concentration) and competing ligands were tested. Competing ligands were added to the membrane suspension in Tris buffer, pH 7.4 at 23°, and radioligand was added immediately thereafter. Assay volume was 500 μl. After incubation (1 h, 23°), the mixture was chilled, filtered, washed twice, and counted. Displacement of radioligand by levallorphan (1 μM final concentration) was taken as measure of stereospecific saturable binding; this was usually about 70% of total binding. […] Methanol-HCl solvent, present in all incubation tubes in a volume of 5 μl, had no effect on control binding.
Effects of dynorphin-(1-13) in the radioreceptor binding assay. Washed membranes from rat brain homogenate, 1 h incubation at 23°. Data are IC50 values (nM) from complete log dose-inhibition curves for inhibition of stereospecific binding of the various radioligands. […] DADLE=D-ala^2 -D-leu^5 -enkephalin. DHM=dihydromorphine.

[3] = tested on: antiserum to dynorphin (1-13)-thyroglobulin conjugate; assay: dynorphin radioimmunoassay; assay type: binding, rabbit
Source text: The subject dynorphin was used for the development of immunoassays, illustrated particularly by a radioimmunoassay. For carrying out the immunoassay, it is necessary to prepare antigens which specifically recognize the oligopeptide, in this case dynorphin. To prepare antigen conjugates, thyroglobulin was conjugated to synthetic dynorphin (1-13). The procedure for preparing the antigen conjugate, injecting the antigen conjugate into animals and isolating the antisera is described as follows.
Synthetic dynorphin (1-13) (3.25 μmoles, 5.2 mg) was dissolved in 2 ml of 100 mM sodium phosphate buffer at neutrality. To the mixture was added with agitation 10^5 cpm of ^125 I-dynorphin to serve as a tracer. After addition of the tracer, 26 mg of thyroglobulin (bovine type 1, Sigma) was added and the mixture cooled in an ice-bath after the thyroglobulin dissolved. […]
Based on the coupling efficiency calculated from the cpm of the dialysis bag residue, after lyophilizing, sufficient of the conjugate was employed to provide 50-100 μg of coupled oligopeptide per rabbit. […]
The procedure for the assay was as follows: All solutions were in ice at the outset and all operations were carried out in ice. […] To a 13×100 mm borosilicate glass tube was transferred 850 μl of the supernatant and the tube counted for 5 min in a gamma counter. […]

[4] = tested on: guinea pig ileum myenteric plexus-longitudinal muscle preparation; assay: guinea pig ileum myenteric plexus-longitudinal muscle preparation bioassay; assay type: cell-based; settings: inhibition of electrically stimulated twitch; geometric mean of several muscle strips
Source text: Starting material was 100 g MSH concentrate, the second oxycellulose adsorbate in commercial ACTH production from procine pituitary glands (Schally et al (1962) Endocrinology 71, 164). The initial steps, with 25 g batches, have been described in Lowney et al (1979) Life Sci. 24, 2377: extraction and back-extraction with butanol; separation from β-endorphin on Bio-Gel P6; preparative reversed-phase HPLC on C18 columns, first with a methanol gradient in trifluoroacetic acid (TFA), then with an acetonitrile gradient in Tris buffer at neutrality, followed by elution of the active material with TFA. Every step was monitored by assay on the guinea pig ileum myenteric plexus-longitudinal muscle preparation. Kosterlitz & Waterfled (1975) Ann. Rev. Pharmacol. 15, 29; Schulz & Goldstein (1973) Brit. J. Pharmacol. 48, 655.
The guinea pig ileum myenteric plexus-longitudinal muscle preparation was used as described in Kosterlitz et al, supra, and Schulz & Goldstein, supra. […] Kd values for naloxone as an antagonist were determined from the ratio of IC50 values in the presence and absence of a fixed naloxone concentration. […] IC50 and naloxone Kd values were determined as above. […]

[5] = ^a = unusually shallow slope, read-out: IC50 for inhibition of stereospecific binding, radioligand 3H-DADLE

Compound	IC50 ([1]; inhibition of electrically stimulated twitch, geometric mean) [nM]	Potency in mouse vas deferens / potency in guinea pig ileum ([1]; ratio of potencies in the two bioassays)	IC50 [2, 5] [nM]	IC50 ([2]; ^a = unusually shallow slope, read-out: IC50 for inhibition of stereospecific binding, radioligand 3H-DHM) [nM]	IC50 ([2]; without Na, read-out: IC50 for inhibition of stereospecific binding, radioligand 3H-naloxone -Na) [nM]	binding of labeled leucine enkephalin by the antiserum ([3]; antiserum concentration as high as 1:10 dilution, iodinated or tritiated)	cross reactivity with dynorphin in the radioimmunoassay ([3]; fragment substituted for dynorphin)	IC50 [4] [nM]
Leucine-enkephalin	23	20	400	2100	6000	neither iodinated nor tritiated leucine enkephalin was bound	no evidence of any cross reactivity	460
Oc1ccc2c3c1O[C@H]1[C@@H](O)C=C[C@H]4[C@@H](C2)NCC[C@@]341 [Normorphine]			23					
